This is one part of the list.

For the assay, the system named is A. baumannii ATCC 17978. Kind of assay: relative growth (fraction of control); higher = less inhibition. Conditions: 50 µM.
As for `CO[C@H]1CN(C)C(=O)c2ccc(NS(=O)(=O)c3cn(C)cn3)cc2OC[C@H](C)N(CC2CC2)C[C@H]1C`, the relative growth stood at 0.882.

`NCC[C@H]1CC[C@H](NC(=O)NC2CCCCC2)[C@H](CO)O1` displayed a relative growth of 0.946.

Regarding `CCOC(=O)c1c[nH]c(=S)[nH]c1=O`, the relative growth stood at 1.01.

The compound `COc1ccc(C(=O)Nc2cccc(CN3C(=O)[C@@]4(O[C@@H](CC(=O)N5Cc6ccccc6C[C@H]5CO)[C@H]([Si](C)(C)c5ccc(OC)cc5)[C@H]4C)c4ccccc43)c2)cc1` came in with a relative growth of 1.02.

Compound `CCOC(=O)C1=C[C@@H](OC(CC)CC)[C@H](NC(C)=O)[C@@H](N)C1.O=P(O)(O)O` registered a relative growth of 1.04.

`O=c1oc2cc(O)ccc2s1` came in with a relative growth of 0.924.

For the compound `O=C(C[C@H]1C[C@@H]2c3cc(NC(=O)c4ccc5c(c4)OCO5)ccc3O[C@@H]2[C@H](CO)O1)NCc1ccc(Oc2ccccc2)cc1`, the relative growth turned out to be 1.17.

`COC(=O)Nc1c(C)cc(C)cc1C` had a relative growth of 1.03.

Regarding `CN(C)CN1C(=O)c2ccccc2C1=O`, the relative growth was found to be 1.01.

`N.N.O=C1[O][Pt][O]C(=O)C12CCC2` gave a relative growth of 0.802.

For `Cc1ccc2c(c1)c1nc3ccccc3nc1n2Cc1ccccc1`, the relative growth was determined as 1.02.

In the case of `CN(C)CCCNC(=O)C[C@H]1C=C[C@@H](NC(=O)Cc2cccnc2)[C@@H](CO)O1`, the relative growth was 1.01.

`COc1oc(C(=O)NC2CCCCC2)c(-c2ccc(Cl)cc2)c1S(=O)(=O)c1cccc(Cl)c1` registered a relative growth of 0.93.

Consider `CC(C)(C)OC(=O)C[C@H]1CC=CC[C@@H](CC(=O)NCCO)C(=O)N[C@@H](Cc2ccccc2)COC1=O`, for which the relative growth came out at 0.967.

As to `C/C(=C\C(=O)OCCCCCCCCC(=O)O)C[C@@H]1OC[C@H](C[C@@H]2O[C@H]2[C@@H](C)[C@H](C)O)[C@@H](O)[C@H]1O`, the relative growth is 0.969.

Regarding `CCOC(=O)c1cnn2c(N)c(C#N)cnc12`, the relative growth was determined as 1.

In turn, `Nc1cc(=O)[nH]c(=O)n1Cc1ccccc1` registered a relative growth of 1.02.

Consider `COCC#Cc1ccc2c(c1)O[C@H](CN(C)Cc1ccc3c(c1)OCO3)[C@H](C)CN([C@@H](C)CO)S2(=O)=O`, for which the relative growth is 0.856.

Consider `NC(=O)CN1CCCCCC1=O`, for which the relative growth was 0.822.

The compound `CC(N)C12CC3CC(CC(C3)C1)C2.Cl` (stereo not drawn) displayed a relative growth of 1.01.

Regarding `COc1cccc(S(=O)(=O)Nc2ccc3c(c2)[C@H]2C[C@H](CC(=O)NCc4ccccc4F)O[C@@H](CO)[C@H]2O3)c1`, the relative growth was found to be 0.826.

The compound `COc1ccc(C(=O)Nc2cccc(CN3C(=O)[C@]4(O[C@H](CC(=O)N(CCO)Cc5ccccc5)[C@@H]([Si](C)(C)c5ccc(OC)cc5)[C@@H]4C)c4ccccc43)c2)cc1` yielded a relative growth of 1.13.

As to `COc1ccc(OC)c(C(O)CNC(=O)CN)c1.Cl` (stereo not drawn), the relative growth worked out at 1.

Take `C[C@]12CCC(=O)C=C1CCC1C2[C@@H](O)C[C@@]2(C)C1CC[C@]2(O)C(=O)CO` (stereo partly drawn): the relative growth was found to be 0.993.

`C=CCSc1n[nH]c(=O)[nH]c1=O` showed a relative growth of 0.94.

Turning to `Cc1cn([C@H]2CC[C@@H](CO)O2)c(=O)[nH]c1=O`, the relative growth was 1.02.

`C[C@H]1CN([C@@H](C)CO)S(=O)(=O)c2ccc(C#Cc3ccncc3)cc2O[C@H]1CN(C)C(=O)c1ccncc1` displayed a relative growth of 0.939.

Consider `CC(C)NC(=O)N[C@H]1CC[C@H](CCN)O[C@H]1CO`, for which the relative growth was 1.17.

`O=C(C[C@@H]1CC=CC[C@H](NC(=O)OCC2c3ccccc3-c3ccccc32)C(=O)OCCNC1=O)NCCO` displayed a relative growth of 1.07.

For the compound `C=CCC[C@H](Cc1ccc(F)cc1)C(=O)OC[C@@H]1CCCN1C(=O)[C@H](CC=C)CC(=O)N(CCO)Cc1ccccc1`, the relative growth was 0.985.

The compound `C[C@H]1CN([C@@H](C)CO)S(=O)(=O)c2ccc(C#CCN(C)C)cc2O[C@H]1CN(C)C(=O)CN(C)C` showed a relative growth of 0.989.

`C/C=C/c1ccc2c(c1)O[C@@H](CN(C)C(=O)c1ccc3c(c1)OCO3)[C@H](C)CN([C@H](C)CO)S2(=O)=O`: the relative growth was determined as 1.07.

In the case of `COc1cc(/C=C/C(=O)OC[C@H]2O[C@@H](O[C@@H]3OC=C[C@H]4[C@H](O)[C@@H]5O[C@]5(CO)[C@@H]34)[C@H](O)[C@@H](O)[C@@H]2O)ccc1O`, the relative growth stood at 1.06.

In turn, `C[C@@H]1CN([C@@H](C)CO)S(=O)(=O)c2ccc(-c3ccc(C(=O)N(C)C)cc3)cc2O[C@@H]1CN(C)C(=O)C1CCC1` came in with a relative growth of 0.974.

In the case of `O=C(O)c1cc(/N=N/c2ccc(S(=O)(=O)Nc3ccccn3)cc2)ccc1O`, the relative growth came out at 1.18.

`C=CCOC(=O)[C@H]1[C@@H]2C(=O)O[C@@H](c3ccccc3)[C@@H](c3ccccc3)N2[C@@H](c2ccc(OCCOC(=O)[C@H]3C[C@H]4C(=O)N[C@@H](CC(C)C)C(=O)N4[C@H]3c3cccc(OCCO)c3)cc2)[C@]12C(=O)Nc1ccc(I)cc12` showed a relative growth of 1.27.

`Cl.O=C1CC2(CCCC2)CC(=O)N1CCCCN1CCN(c2ncccn2)CC1` came in with a relative growth of 0.898.

Take `CCn1c2c(c3cc(C4CCCCC4)ccc31)CCC/C2=N\O`: the relative growth amounted to 1.21.

Compound `C[C@H]1CN([C@@H](C)CO)S(=O)(=O)c2ccc(-c3ccc(F)cc3)cc2O[C@@H]1CN(C)S(C)(=O)=O` gave a relative growth of 0.877.

Compound `CCCCc1oc2ccccc2c1C(=O)c1cc(I)c(OCCN(CC)CC)c(I)c1.Cl` yielded a relative growth of 1.1.

`Cc1ncc([N+](=O)[O-])n1CC(C)O` (stereo not drawn) yielded a relative growth of 0.999.

As to `CCn1c(=S)[nH]c2ccccc21`, the relative growth was 1.01.

Compound `COc1ccc(S(=O)(=O)N2C[C@@H](O)COC[C@@H]3O[C@@H](CC(=O)NCc4ccc(Cl)c(Cl)c4)CC[C@H]32)cc1` showed a relative growth of 1.03.

For the compound `COC(=O)c1c(C)cc(OC(=O)c2c(C)cc(O)c(C=O)c2O)c(C)c1O`, the relative growth came to 0.961.

Consider `C[C@H]1CN([C@@H](C)CO)S(=O)(=O)c2ccc(C#CC3(O)CCCC3)cc2O[C@@H]1CN(C)C(=O)c1ccccc1`, for which the relative growth was 0.909.

Turning to `O=C(C[C@@H]1C=C[C@H](NC(=O)c2ccncc2)[C@@H](CO)O1)NCc1ccncn1`, the relative growth was determined as 1.18.

`CS(=O)(=O)Cc1ccc(C(=O)O)cc1` displayed a relative growth of 0.955.

In turn, `CC1=C(/C=C/C(C)=C/C=C/C(C)=C/CO)C(C)(C)CCC1` showed a relative growth of 1.17.

`Cc1ccc(Sc2c(-c3ccccc3)nc3sccn23)cc1` showed a relative growth of 1.18.

The compound `CCNC(=O)C[C@@H]1C=C[C@@H](NC(=O)C2CC2)[C@@H](CO)O1` yielded a relative growth of 1.25.

`CCCC(=O)Nc1ccc2c(c1)OC[C@@H](C)N(S(=O)(=O)c1cn(C)cn1)C[C@H](C)[C@H](OC)CN(C)C2=O` registered a relative growth of 0.996.

In turn, `CC1(C)CCC[C@@]2(C)C1CC[C@@]1(C)OCC[C@@H]12` (stereo partly drawn) registered a relative growth of 1.02.

Turning to `CO[C@H]1CN(C)C(=O)c2cc(NC(=O)C3CC3)ccc2OC[C@@H](C)N(C(=O)C2CCOCC2)C[C@@H]1C`, the relative growth was found to be 1.08.

The record behind these values is published antibiotic growth screens (doi:10.1038/s41589-023-01349-8).
